PubChem BioAssay AID686992 (Broad Institute, 2013)
The entries are a selection whose mix differs from that of the whole data set. The source made the active and inactive calls.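 Rule for the calls: active = mean E-selectin-positive cell signal at least 10% of the positive control, reached in at least 60% of replicates, without over 20% cell loss; inconclusive = no rule given, readout overlaps actives, possibly toxicity-flagged; inactive = the rest, including those meeting only one limit.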

Protein sequences, listed by entry. Tags and fused reporters are not part of them.
UniProt P16581, whole entry: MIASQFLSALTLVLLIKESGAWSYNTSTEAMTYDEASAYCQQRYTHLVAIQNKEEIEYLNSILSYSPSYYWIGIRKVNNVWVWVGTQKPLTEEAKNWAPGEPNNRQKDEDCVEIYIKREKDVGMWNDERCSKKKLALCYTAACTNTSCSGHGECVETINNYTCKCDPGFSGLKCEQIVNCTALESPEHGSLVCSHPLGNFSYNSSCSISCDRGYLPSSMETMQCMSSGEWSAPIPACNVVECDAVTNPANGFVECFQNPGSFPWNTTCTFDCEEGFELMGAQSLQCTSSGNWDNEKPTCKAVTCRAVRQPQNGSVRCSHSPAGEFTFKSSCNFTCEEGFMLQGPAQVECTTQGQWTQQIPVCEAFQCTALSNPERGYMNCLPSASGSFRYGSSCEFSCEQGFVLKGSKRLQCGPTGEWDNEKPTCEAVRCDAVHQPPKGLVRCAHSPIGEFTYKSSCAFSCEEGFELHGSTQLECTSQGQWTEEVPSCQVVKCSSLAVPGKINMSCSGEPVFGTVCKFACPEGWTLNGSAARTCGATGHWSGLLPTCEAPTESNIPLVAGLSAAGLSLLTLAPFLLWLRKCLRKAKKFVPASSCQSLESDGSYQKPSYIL

Each compound was assayed against E-selectin (Homo sapiens) (UniProt P16581) (assay: inducers of endothelial E-selectin expression – imaging, HUVEC, immunofluorescence imaging, single point, primary screen (AID 686992;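 note: signal is the percent of cells scored E-selectin positive by PE staining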)). Conditions: at 7.58 µM, active compounds read high, normalized: neutral wells 0, TNF-alpha wells 100.
How it was run: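 Assay system: HUVEC, human umbilical vein endothelial cells / Amount: 3,000 HUVEC/well / Controls: TNF-alpha positive control, DMSO neutral control / Compound dosing: single concentration / Medium: EGM-2 over gelatin coat / Evaluation: percent E-selectin-positive cells / Signal: immunofluorescence imaging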
`Cc1cccc(NC2(C#N)CCN(Cc3ccccc3)CC2)c1` was tested, and the activation was inactive: -0.001%.
`COc1ccc(C(=O)NCC2(N3CCCCC3)CCCCC2)c(OC)c1OC` was tested, and the activation was inactive: 5.29%.
`CC(C)(C)OC(=O)N1CCC(N(C(=O)c2ccccc2)c2ccc(F)cc2)CC1` was tested, and the activation was inactive: -0.172%.
For `CCC(c1nnnn1C1CCCC1)N1CCC(n2c(=O)[nH]c3ccccc32)CC1` (centres undefined), the activation was inactive: 0.166%.
`CCCCn1nnnc1C(CC)N1CCC(n2c(=O)[nH]c3ccccc32)CC1` (centres undefined) was tested, and the activation was inactive: 0.675%.
With `CCCCn1nnnc1C(c1cccs1)N1CCC(n2c(=O)[nH]c3ccccc32)CC1` (centres undefined) the activation was inactive: -0.113%.
In the case of `O=C(NCC1(N2CCCCC2)CCCCC1)c1ccc(Cl)s1`, the activation was inactive: 0.0675%.
For `N#CC1(Nc2ccccc2)CCN(Cc2ccccc2)CC1`, the activation was inactive: -0.002%.
With `O=c1[nH]c2ccccc2n1C1CCN(C(c2cc3ccccc3o2)c2nnnn2C2CCCCC2)CC1` (centres undefined) the activation was inactive: -0.195%.
In the case of `COc1ccc(Cl)cc1C(=O)NCC1(N2CCOCC2)CCCCC1`, the activation was inactive: -0.201%.
For `CCCCn1nnnc1C(c1ccc(OC)cc1)N1CCC(n2c(=O)[nH]c3ccccc32)CC1` (centres undefined), the activation was inactive: 0.012%.
For `O=C(NCC1(N2CCCCC2)CCCCC1)c1ccc(Cl)nc1`, the activation was inactive: 0.0465%.
With `Cc1cc(C)cc(N(C(=O)c2ccccc2)C2CCN(C(=O)OC(C)(C)C)CC2)c1` the activation was inactive: -0.069%.
With `CCCCn1nnnc1C(c1cc2ccccc2o1)N1CCC(n2c(=O)[nH]c3ccccc32)CC1` (centres undefined) the activation was inactive: -1.23%.
In the case of `O=P1(N(CCCl)CCCl)SCCCS1`, the activation was inactive: -0.097%.
`CC(C)(C)n1nnnc1C(c1ccccc1)N1CCC(n2c(=O)[nH]c3ccccc32)CC1` (centres undefined) was tested, and the activation was inactive: -0.0705%.
For `CCOc1ccc(C)cc1CN(CCCl)CCCl`, the activation was inactive: -0.0525%.
In the case of `COc1cc(C(=O)NCC2(N(C)C)CCCCC2)ccc1OC(F)F`, the activation was inactive: 0.0375%.
`O=c1[nH]c2ccccc2n1C1CCN(C(c2ccccc2)c2nnnn2C2CCCCC2)CC1` (centres undefined) was tested, and the activation was inactive: 0.164%.
For `O=c1[nH]c2ccccc2n1C1CCN(C(c2ccccc2OC(F)(F)F)c2nnnn2C2CCCC2)CC1` (centres undefined), the activation was inactive: 0.518%.
`O=C(NCC1(N2CCCCC2)CCCCC1)c1cccc([N+](=O)[O-])c1` was tested, and the activation was inactive: 0.0025%.
In the case of `COc1ccc(NC2CCN(C(=O)OC(C)(C)C)CC2)cc1`, the activation was inactive: -0.01%.
In the case of `O=C(NCC1(N2CCOCC2)CCCCC1)c1cc(F)c(F)cc1Cl`, the activation was inactive: -0.417%.
With `CCC(c1nnnn1C(C)(C)C)N1CCC(n2c(=O)[nH]c3ccccc32)CC1` (centres undefined) the activation was inactive: -0.095%.
`CCCCn1nnnc1C(c1ccnc2ccccc12)N1CCC(n2c(=O)[nH]c3ccccc32)CC1` (centres undefined) was tested, and the activation was inactive: -0.124%.
`CC(C)c1ccc(NC2CCN(C(=O)OC(C)(C)C)CC2)cc1` was tested, and the activation was inactive: 1.07%.
In the case of `CN(C)c1cccc(C(=O)NCC2(N3CCCCC3)CCCCC2)c1`, the activation was inactive: 1.23%.
With `COc1ccc(C(c2nnnn2C2CCCC2)N2CCC(n3c(=O)[nH]c4ccccc43)CC2)cc1` (centres undefined) the activation was inactive: -0.189%.
`Cc1ccc(C(=O)NCC2(N(C)C)CCCCC2)o1` was tested, and the activation was inactive: -0.939%.
For `O=C(NCC1(N2CCCCC2)CCCCC1)c1cncc(Br)c1`, the activation was inactive: -1.14%.
`O=c1[nH]c2ccccc2n1C1CCN(C(c2cccs2)c2nnnn2C2CCCCC2)CC1` (centres undefined) was tested, and the activation was inactive: -0.419%.
With `CCCCn1nnnc1C(c1ccccc1)N1CCC(n2c(=O)[nH]c3ccccc32)CC1` (centres undefined) the activation was inactive: -0.137%.
For `COc1cc(C(=O)NCC2(N3CCOCC3)CCCCC2)cc(OC)c1C`, the activation was inactive: 0.527%.
With `O=C(NCC1(N2CCOCC2)CCCCC1)c1cc(Br)ccc1Cl` the activation was inactive: 0.373%.
In the case of `CCCCn1nnnc1C(c1cccc(OC)c1OC)N1CCC(n2c(=O)[nH]c3ccccc32)CC1` (centres undefined), the activation was inactive: -0.2%.
`N#Cc1ccc(C(=O)NCC2(N3CCCCC3)CCCCC2)cc1` was tested, and the activation was inactive: 3.9%.
In the case of `CC(C)(C)OC(=O)N1CCC(N(C(=O)c2ccccc2)c2ccc(Cl)cc2)CC1`, the activation was inactive: 0.022%.
`CC(C)(C)n1nnnc1C(c1cccc2ccccc12)N1CCC(n2c(=O)[nH]c3ccccc32)CC1` (centres undefined) was tested, and the activation was inactive: -0.461%.
For `CN(C)C1(CNC(=O)c2cccc(C#N)c2)CCCCC1`, the activation was inactive: -0.066%.
With `C/C(N)=N\P(=O)(Oc1ccccc1)Oc1ccccc1` the activation was inactive: 0.294%.
For `O=c1[nH]c2ccccc2n1C1CCN(C(c2ccccc2)c2nnnn2C2CCCC2)CC1` (centres undefined), the activation was inactive: -0.762%.
For `Cc1cc(N(CCCl)CCCl)ccc1C=O`, the activation was inactive: 0.114%.
For `Cc1ccc(C(=O)NCC2(N3CCCCC3)CCCCC2)o1`, the activation was inactive: -0.573%.
In the case of `Cc1ccc(NC2(C#N)CCN(Cc3ccccc3)CC2)cc1`, the activation was inactive: 0.254%.
In the case of `CC(=O)N(c1ccccc1)C1CCNCC1`, the activation was inactive: 1.22%.
`CCC(c1nnnn1C1CCCCC1)N1CCC(n2c(=O)[nH]c3ccccc32)CC1` (centres undefined) was tested, and the activation was inactive: 1.05%.
For `COc1cc(OC)cc(C(=O)NCC2(N3CCCCC3)CCCCC2)c1`, the activation was inactive: -0.137%.
For `O=C(NCC1(N2CCCCC2)CCCCC1)c1ccco1`, the activation was inactive: 0.1%.
In the case of `CN(C)c1ccc(C(=O)NCC2(N3CCCCC3)CCCCC2)cc1`, the activation was inactive: -1.74%.
In the case of `Cn1c(=O)[nH]cc(N(CCCl)CCCl)c1=O`, the activation was inactive: -0.481%.
With `Cc1ccccc1NC1(C#N)CCN(Cc2ccccc2)CC1` the activation was inactive: -0.0215%.
In the case of `COc1ccc(C(c2nnnn2C2CCCCC2)N2CCC(n3c(=O)[nH]c4ccccc43)CC2)cc1` (centres undefined), the activation was inactive: -0.071%.
With `CC(C)(C)OC(=O)N1CCC(Nc2ccccc2)CC1` the activation was inactive: -1.62%.
In the case of `NN(c1ccccc1)C1CCN(CCc2ccccc2)CC1`, the activation was inactive: 11.1%.
With `O=C(O)C1(Nc2ccccc2)CCN(Cc2ccccc2)CC1` the activation was inactive: -0.0415%.
With `O=c1[nH]c2ccccc2n1C1CCN(C(c2cc3ccccc3o2)c2nnnn2C2CCCC2)CC1` (centres undefined) the activation was inactive: 0.051%.
With `CCCOc1ccc(C(=O)NCC2(N(C)C)CCCCC2)cc1` the activation was inactive: 0.165%.
With `COc1cccc(C(=O)N(c2cc(C)cc(C)c2)C2CCN(C(=O)OC(C)(C)C)CC2)c1` the activation was inactive: -0.0695%.
In the case of `COc1cccc(C(c2nnnn2C2CCCC2)N2CCC(n3c(=O)[nH]c4ccccc43)CC2)c1OC` (centres undefined), the activation was inactive: -1.62%.
